Structures are written as SMILES. The entries are a selection whose mix differs from that of the whole data set. Active and inactive are the calls of the source.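 Rule for the calls: active = inhibition above the plate cutoff, the mean of all test compounds on that plate plus 3 SD (cut at about 35% in these data); inactive = the rest.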

This assay can be described thus: binders of r(CAG) RNA repeats, primary screen, biochemical, fluorescence (AID 651821).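 Note: 0% = DMSO alone and 100% = 100 µM mitoxantrone as full dye displacement; higher means more dye released from RNA so lower well fluorescence.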 The following applies: r(CAG) RNA repeat, TO-PRO-1 dye displacement fluorescence; at 3 µM; active compounds read high.
For orientation: inhibition means the change of the read-out against control, counted positive when it falls. For the molecule `O=c1[nH]c2ccccc2n1C1CCN(C(c2cccc3ccccc23)c2nnnn2C2CCCC2)CC1` (stereo not given), the inhibition is inactive: 9.43%.

Take `COc1cc(C(=O)NCC2(N(C)C)CCCCC2)ccc1OC(F)F`: the inhibition is inactive: -1.33%.

As for `CCOC(=O)N1CCC(Nc2cccc(C)c2)CC1`, the inhibition is inactive: -7.6%.

Regarding `O=c1[nH]c2ccccc2n1C1CCN(C(c2ccccc2)c2nnnn2C2CCCCC2)CC1` (stereo not given), the inhibition was inactive: 6.62%.

`O=C(NCC1(N2CCCCC2)CCCCC1)c1ccc(F)cc1`: the inhibition was inactive: -1.48%.

Consider `O=P1(N(CCCl)CCCl)SCCCS1`, for which the inhibition was inactive: 0.19%.

Regarding `CCCCn1nnnc1C(c1cc2ccccc2o1)N1CCC(n2c(=O)[nH]c3ccccc32)CC1` (stereo not given), the inhibition was inactive: 6.92%.

Turning to `CCCCOc1ccc(C(=O)NCC2(N3CCOCC3)CCCCC2)cc1`, the inhibition was inactive: -11.2%.

As for `COc1ccc(NC2CCN(CCc3ccccc3)CC2)c(OC)c1`, the inhibition is inactive: 16.1%.

Regarding `CCOC(=O)N1CCC(Nc2ccc(F)cc2)CC1`, the inhibition was inactive: 2.26%.

Turning to `CCOc1ccc(C)cc1CN(CCCl)CCCl`, the inhibition is inactive: -3.7%.

As to `CC(C)(C)n1nnnc1C(c1ccccc1)N1CCC(n2c(=O)[nH]c3ccccc32)CC1` (stereo not given), the inhibition is inactive: 1.68%.

As for `O=C1CCN(Cc2ccccc2)CC1`, the inhibition is inactive: -4.71%.

As to `CCOC(=O)N1CCC(Nc2ccc(OC)cc2)CC1`, the inhibition is inactive: -3.14%.

With `CCCCn1nnnc1C(c1ccc(OC)cc1)N1CCC(n2c(=O)[nH]c3ccccc32)CC1` (stereo not given), the inhibition is inactive: 4%.

As to `O=C(OC1CN2CCC1CC2)C1c2ccccc2Oc2ccccc21` (stereo not given), the inhibition is inactive: -0.94%.

In the case of `O=c1[nH]c2ccccc2n1C1CCN(C(c2cc3ccccc3o2)c2nnnn2C2CCCCC2)CC1` (stereo not given), the inhibition was inactive: 8.49%.

With `N#CC1(Nc2ccccc2)CCN(Cc2ccccc2)CC1`, the inhibition was inactive: 1.37%.

As to `O=C(NCC1(N2CCCCC2)CCCCC1)c1ccc(Cl)s1`, the inhibition was inactive: 0.78%.

For `COc1ccc(Cl)cc1C(=O)NCC1(N2CCOCC2)CCCCC1`, the inhibition is inactive: -2.24%.

Consider `O=C(NCC1(N2CCOCC2)CCCCC1)c1cc2ccccc2o1`, for which the inhibition is inactive: 1.52%.

`O=c1[nH]c2ccccc2n1C1CCN(C(c2ccccc2OC(F)(F)F)c2nnnn2C2CCCCC2)CC1` (stereo not given): the inhibition is inactive: 2.3%.

On to `O=C(NCC1(N2CCCCC2)CCCCC1)c1ccc(Cl)nc1`, for which the inhibition is inactive: -3.15%.

`Cc1cc(C)cc(N(C(=O)c2ccccc2)C2CCN(C(=O)OC(C)(C)C)CC2)c1`: the inhibition was inactive: -12.6%.

For `CSc1ccccc1C(=O)NCC1(N2CCCCC2)CCCCC1`, the inhibition was inactive: 1.68%.

In the case of `Cc1cccc(NC2(C#N)CCN(Cc3ccccc3)CC2)c1`, the inhibition is inactive: 2.14%.

Take `O=C(NCC1(N2CCCCC2)CCCCC1)c1ccc(=O)[nH]c1`: the inhibition was inactive: -2.12%.

For `CCCCn1nnnc1C(c1cccs1)N1CCC(n2c(=O)[nH]c3ccccc32)CC1` (stereo not given), the inhibition was inactive: 1.03%.

For `O=C(NCC1(N2CCCCC2)CCCCC1)c1cccs1`, the inhibition was inactive: 1.3%.

`CCCCn1nnnc1C(CC)N1CCC(n2c(=O)[nH]c3ccccc32)CC1` (stereo not given): the inhibition was inactive: 3.03%.

In the case of `COc1ccc(C(=O)NCC2(N3CCCCC3)CCCCC2)cc1`, the inhibition is inactive: 1.63%.

Regarding `CCC(c1nnnn1C1CCCC1)N1CCC(n2c(=O)[nH]c3ccccc32)CC1` (stereo not given), the inhibition is inactive: 0.13%.

`CC(C)(C)OC(=O)N1CCC(N(C(=O)c2ccccc2)c2ccc(F)cc2)CC1`: the inhibition was inactive: -6.92%.

Take `COc1ccc(C(=O)NCC2(N3CCCCC3)CCCCC2)c(OC)c1OC`: the inhibition was inactive: -4.72%.

Regarding `Cc1ccc(C(=O)NCC2(N(C)C)CCCCC2)o1`, the inhibition was inactive: 2.93%.

Regarding `CCCOc1ccc(C(=O)NCC2(N(C)C)CCCCC2)cc1OC`, the inhibition was inactive: -4.57%.

As for `COc1ccc(C(c2nnnn2C2CCCC2)N2CCC(n3c(=O)[nH]c4ccccc43)CC2)cc1` (stereo not given), the inhibition is inactive: 3.96%.

As to `O=C(NCC1(N2CCCCC2)CCCCC1)c1cncc(Br)c1`, the inhibition was inactive: 4.66%.

With `CN1CCC(Nc2cccc(F)c2)CC1`, the inhibition is inactive: -0.06%.

Turning to `CCCCn1nnnc1C(c1ccnc2ccccc12)N1CCC(n2c(=O)[nH]c3ccccc32)CC1` (stereo not given), the inhibition was inactive: 5.08%.

For `COc1cc(OC)c(C(=O)NCC2(N(C)C)CCCCC2)cc1OC`, the inhibition was inactive: -4.09%.

For the molecule `O=C(NCC1(N2CCOCC2)CCCCC1)c1cc(F)c(F)cc1Cl`, the inhibition is inactive: -4.97%.

As for `CCC(c1nnnn1C(C)(C)C)N1CCC(n2c(=O)[nH]c3ccccc32)CC1` (stereo not given), the inhibition was inactive: -0.39%.

Take `COC(=O)C1(Nc2ccccc2)CCN(Cc2ccccc2)CC1`: the inhibition was inactive: 1.16%.

On to `COc1ccc(CN(CCCl)CCCl)cc1Cl`, for which the inhibition was inactive: 2.64%.

Turning to `CN(C)c1cccc(C(=O)NCC2(N3CCCCC3)CCCCC2)c1`, the inhibition was inactive: -3.25%.

As for `CC(C)c1ccc(NC2CCN(C(=O)OC(C)(C)C)CC2)cc1`, the inhibition is inactive: -10.6%.

`CCCCn1nnnc1C(c1cccc2ccccc12)N1CCC(n2c(=O)[nH]c3ccccc32)CC1` (stereo not given): the inhibition is inactive: 9.31%.

Take `CN1CCN(CCOC(=O)C(O)(c2ccccc2)c2ccccc2)CC1`: the inhibition is inactive: -0.59%.

Turning to `CC(C)c1ccc(C(=O)NCC2(N3CCOCC3)CCCCC2)cc1`, the inhibition was inactive: -10.7%.

With `COc1ccc(NC2CCN(C(=O)OC(C)(C)C)CC2)cc1`, the inhibition is inactive: -5.66%.

Turning to `COc1cc(C(=O)NCC2(N3CCCCC3)CCCCC2)ccc1OC(F)F`, the inhibition was inactive: -1.22%.

Regarding `O=C(NCC1(N2CCOCC2)CCCCC1)c1cc(=O)[nH]c2ccccc12`, the inhibition was inactive: -2.77%.

Consider `O=C(NCC1(N2CCCCC2)CCCCC1)c1cccc(C(F)(F)F)c1`, for which the inhibition is inactive: -1.14%.

Regarding `CSc1ccc(C(=O)NCC2(N3CCOCC3)CCCCC2)cc1`, the inhibition was inactive: -1.75%.

Turning to `O=C(NCC1(N2CCCCC2)CCCCC1)c1cccc([N+](=O)[O-])c1`, the inhibition was inactive: 1.49%.

On to `CCN1CCC(Nc2ccc(Cl)cc2)CC1`, for which the inhibition was inactive: -4.22%.

Take `N#CC1(Nc2ccccc2)CCN(CCc2ccccc2)CC1`: the inhibition is inactive: -0.89%.

In the case of `O=c1[nH]c2ccccc2n1C1CCN(C(c2ccccc2OC(F)(F)F)c2nnnn2C2CCCC2)CC1` (stereo not given), the inhibition was inactive: 4%.

For `CC(C)(C)n1nnnc1C(c1ccccc1OC(F)(F)F)N1CCC(n2c(=O)[nH]c3ccccc32)CC1` (stereo not given), the inhibition is inactive: 2.96%.

`O=C(NCC1(N2CCCCC2)CCCCC1)c1ccc(OC(F)F)cc1`: the inhibition was inactive: 3.86%.

For `CC(C)(C)n1nnnc1C(c1cccc2ccccc12)N1CCC(n2c(=O)[nH]c3ccccc32)CC1` (stereo not given), the inhibition was inactive: 10.8%.

In the case of `c1ccc(CN2CCC(Nc3ccccc3)CC2)cc1`, the inhibition is inactive: -5.08%.

On to `C/C(N)=N\P(=O)(Oc1ccccc1)Oc1ccccc1`, for which the inhibition is inactive: 2.54%.

Turning to `Cc1cc(N(CCCl)CCCl)ccc1C=O`, the inhibition is inactive: -0.24%.

For the molecule `O=c1[nH]c2ccccc2n1C1CCN(C(c2ccccc2)c2nnnn2C2CCCC2)CC1` (stereo not given), the inhibition was inactive: 4.83%.

On to `CCCN1CCC(Nc2cc(OC)cc(OC)c2)CC1`, for which the inhibition was inactive: -8.43%.

With `CN(C)C1(CNC(=O)c2cccc(C#N)c2)CCCCC1`, the inhibition was inactive: -2.24%.

Regarding `CC(C)(C)OC(=O)N1CCC(N(C(=O)c2ccccc2)c2ccc(Cl)cc2)CC1`, the inhibition was inactive: -9.71%.

Take `N#Cc1ccc(C(=O)NCC2(N3CCCCC3)CCCCC2)cc1`: the inhibition is inactive: -2.94%.

In the case of `CCCCn1nnnc1C(c1cccc(OC)c1OC)N1CCC(n2c(=O)[nH]c3ccccc32)CC1` (stereo not given), the inhibition was inactive: 4.93%.

Consider `O=C(OC1CN2CCC1CC2)C1c2ccccc2C=Cc2ccccc21` (stereo not given), for which the inhibition was inactive: -2.41%.

Turning to `O=c1[nH]c2ccccc2n1C1CCN(C(c2cccs2)c2nnnn2C2CCCC2)CC1` (stereo not given), the inhibition was inactive: 3.45%.

Turning to `N/C(=N\O)c1c(N)no[n+]1[O-]`, the inhibition was inactive: 0.52%.

Regarding `COc1cccc(C(c2nnnn2C(C)(C)C)N2CCC(n3c(=O)[nH]c4ccccc43)CC2)c1OC` (stereo not given), the inhibition is inactive: 3.2%.

On to `CCOC(=O)N1CCC(Nc2ccc(C)cc2)CC1`, for which the inhibition was inactive: -4.72%.

On to `COc1ccc(C(=O)NCC2(N3CCOCC3)CCCCC2)cc1OC`, for which the inhibition was inactive: -9.98%.

`O=c1[nH]c2ccccc2n1C1CCN(C(c2ccnc3ccccc23)c2nnnn2C2CCCC2)CC1` (stereo not given): the inhibition was inactive: 6.26%.

For the molecule `O=c1[nH]c2ccccc2n1C1CCN(C(c2cccs2)c2nnnn2C2CCCCC2)CC1` (stereo not given), the inhibition was inactive: 14%.

Consider `NC(=O)C1(Nc2ccccc2)CCN(Cc2ccccc2)CC1`, for which the inhibition was inactive: 0.53%.

On to `O=C(NCC1(N2CCOCC2)CCCCC1)c1cc(Br)ccc1Cl`, for which the inhibition is inactive: -1.52%.

For the molecule `CCCCn1nnnc1C(c1ccccc1)N1CCC(n2c(=O)[nH]c3ccccc32)CC1` (stereo not given), the inhibition is inactive: -1.39%.

Turning to `COc1cc(C(=O)NCC2(N3CCOCC3)CCCCC2)cc(OC)c1C`, the inhibition was inactive: -6.95%.

For `CN1CCC(Nc2ccc(Cl)cc2)CC1`, the inhibition was inactive: -1.1%.

Consider `CCC(CO)(C(=O)OC1CN2CCC1CC2)c1ccccc1` (stereo not given), for which the inhibition was inactive: -0.24%.

`COc1cccc(C(c2nnnn2C2CCCC2)N2CCC(n3c(=O)[nH]c4ccccc43)CC2)c1OC` (stereo not given): the inhibition is inactive: 4.12%.

On to `COc1cc(OC)cc(C(=O)NCC2(N3CCOCC3)CCCCC2)c1`, for which the inhibition was inactive: -9.56%.

On to `COc1cccc(C(=O)N(c2cc(C)cc(C)c2)C2CCN(C(=O)OC(C)(C)C)CC2)c1`, for which the inhibition was inactive: -4.39%.

Take `CCCOc1ccc(C(=O)NCC2(N(C)C)CCCCC2)cc1`: the inhibition is inactive: -6.33%.

As to `O=c1[nH]c2ccccc2n1C1CCN(C(c2cc3ccccc3o2)c2nnnn2C2CCCC2)CC1` (stereo not given), the inhibition is inactive: 11.7%.

Take `CC(C)(C)OC(=O)N1CCC(Nc2ccccc2)CC1`: the inhibition is inactive: -4.92%.

Turning to `O=C(O)C1(Nc2ccccc2)CCN(Cc2ccccc2)CC1`, the inhibition was inactive: -0.77%.

For `NN(c1ccccc1)C1CCN(CCc2ccccc2)CC1`, the inhibition is inactive: 1.8%.

Take `CCOc1ncccc1C(=O)NCC1(N2CCOCC2)CCCCC1`: the inhibition was inactive: -8.32%.

With `CN1CCC(Nc2ccc(F)c(Cl)c2)CC1`, the inhibition was inactive: -1.28%.

Consider `O=C(NCC1(N2CCCCC2)CCCCC1)c1ccco1`, for which the inhibition was inactive: -0.02%.

Turning to `Cn1c(=O)[nH]cc(N(CCCl)CCCl)c1=O`, the inhibition is inactive: 2.37%.

As to `CN(C)c1ccc(C(=O)NCC2(N3CCCCC3)CCCCC2)cc1`, the inhibition is inactive: -2.24%.

On to `Cc1ccccc1NC1(C#N)CCN(Cc2ccccc2)CC1`, for which the inhibition is inactive: 0.28%.

With `CC(C)(C)n1nnnc1C(c1ccnc2ccccc12)N1CCC(n2c(=O)[nH]c3ccccc32)CC1` (stereo not given), the inhibition was inactive: 2.51%.

On to `CCN1CCC(Nc2cccc(F)c2)CC1`, for which the inhibition is inactive: -1.57%.

`COc1ccc(C(c2nnnn2C2CCCCC2)N2CCC(n3c(=O)[nH]c4ccccc43)CC2)cc1` (stereo not given): the inhibition is inactive: 1.69%.

In the case of `Cc1ccc(NC2(C#N)CCN(Cc3ccccc3)CC2)cc1`, the inhibition was inactive: -0.05%.

Turning to `Cc1ccc(C(=O)NCC2(N3CCCCC3)CCCCC2)o1`, the inhibition is inactive: -2.24%.

In the case of `Fc1ccccc1NC1CCN(Cc2ccccc2)CC1`, the inhibition is inactive: -1.18%.

With `O=c1[nH]c2ccccc2n1C1CCN(C(c2ccnc3ccccc23)c2nnnn2C2CCCCC2)CC1` (stereo not given), the inhibition was inactive: 5.28%.

As to `COc1cc(OC)cc(C(=O)NCC2(N3CCCCC3)CCCCC2)c1`, the inhibition was inactive: -2.14%.

As for `CC(=O)N(c1ccccc1)C1CCNCC1`, the inhibition is inactive: -0.05%.

With `COc1cccc(C(c2nnnn2C2CCCCC2)N2CCC(n3c(=O)[nH]c4ccccc43)CC2)c1OC` (stereo not given), the inhibition is inactive: 4.78%.

`CCC(c1nnnn1C1CCCCC1)N1CCC(n2c(=O)[nH]c3ccccc32)CC1` (stereo not given): the inhibition is inactive: 2%.

Source of the values: PubChem BioAssay AID651821 (The Scripps Research Institute Molecular Screening Center, 2012).
